# AlphaSeq binding of Ab-14 light chain variants to a spike HR2 peptide

Data: MIT Lincoln Laboratory AlphaSeq set, Li et al. 2023, doi:10.1038/s41467-023-39022-2, as distributed in FLAb.

All variants were tested on one target, the spike HR2 peptide PDVDLGDISGINAS (SARS-CoV-2).

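The parent was found by panning a naive human phage display library on the peptide. The variants were designed computationally from a first round of random CDR variants and then made and measured. Group labels follow the data file (GPLM: also part of the Gaussian process libraries; HC: hill climbing; Gibbs: Gibbs sampling; a sequence that several methods proposed may carry one label only). AlphaSeq pools MATa yeast showing the antibodies with MATalpha yeast showing the peptide. The frequency of each diploid, read from paired DNA barcodes, reflects how well the two displayed proteins bind. Each replicate has its own calibration line, from reference interactions of the BCL2 family. There are six technical replicates.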

Ab-14 is the parent antibody, in scFv form: VH, then a (GGGGS)3 linker, then VL. The heavy chain is unchanged in all variants.
VH: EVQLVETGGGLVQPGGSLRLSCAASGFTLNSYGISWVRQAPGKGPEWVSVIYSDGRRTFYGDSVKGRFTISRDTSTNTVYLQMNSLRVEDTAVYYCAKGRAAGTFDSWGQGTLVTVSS
VL: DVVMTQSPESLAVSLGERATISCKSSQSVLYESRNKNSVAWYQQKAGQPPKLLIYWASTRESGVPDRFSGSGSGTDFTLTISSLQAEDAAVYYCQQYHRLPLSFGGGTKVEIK

The parent's light chain CDRs are KSSQSVLYESRNKNSVA, WASTRES, QQYHRLPLS; each variant's own CDRs replace them letter for letter. Numbers give log10(Kd / nM), so 0 is 1 nM and 3 is 1 µM. Smaller is tighter. An entry "ND" has no value in the source: the pair was not observed among the diploids in that replicate. This suggests poor binding but is not conclusive. The range of this assay differs from that of the first round, and the authors advise against merging the two. The authors' rule: three or more of the six replicates give a measured affinity, fewer mean a poor binder. Background: pairings of all light chain designs with three empty control strains gave a value in 4% of cases (median 2.64, 5th percentile 1.59). Values in that range, when seen in few replicates, are hard to tell from nonspecific mating. Also given: how often the same scFv was detected with the empty control strains, with their mean in brackets.

CDR-L1,CDR-L2,CDR-L3,group,"replicates, log10 nM",signal with controls
KSSQSWLYESRNKNSVA,GASYRES,QQYHRLPLS,GPLM_HC,0.71 / 0.15 / -0.02 / 0.05 / 0.26 / 0.19,0 of 18
KSSQSRLYESRNKNSVA,GASTRES,QQYHRLPLS,GPLM_HC,0.22 / 0.15 / 0.12 / -0.11 / 0.15 / 0.41,1 of 18 (3.53)
KQSQSVLYESRNKNSVA,GASTRES,QQYHRLPLS,GPLM_HC,-0.08 / -0.01 / -0.09 / -0.15 / 0.00 / 0.05,2 of 18 (3.03)
KSSQSDLYESRNKNSVA,GASTRES,QQYHRLTLS,GPLM_HC,0.51 / -0.20 / -0.15 / -0.65 / -0.35 / 0.17,0 of 18
KVSQSVLYESRNKNSVA,DASTRES,QQYHRLPLM,GPLM_HC,0.24 / -0.23 / 0.02 / 0.14 / -0.06 / 0.19,1 of 18 (3.42)
KLRQSTLYESRNKNSVA,SASTRES,QQYHRLPLS,GPLM_HC,-0.10 / -0.27 / -0.30 / -0.28 / -0.26 / -0.19,3 of 18 (2.18)
KSSQSVLFGSRNKNSVA,DASTRES,QQYHRLPLS,GPLM_HC,0.20 / 0.22 / 0.01 / 0.10 / 0.14 / 0.20,3 of 18 (4.21)
KSEQGVLYESRNKNSVA,GASTRES,QQYHRLPLS,GPLM_HC,0.44 / 0.88 / -0.26 / 0.25 / -0.23 / -0.09,0 of 18
KFSQSVLYESRTKNSVA,NASTRET,QQYHRLPLS,GPLM_HC,-0.03 / -0.23 / -0.26 / -0.31 / -0.39 / 0.10,2 of 18 (3.30)
KLRQSTLYESRNKNSVA,KASTRES,QQYHRLPLS,GPLM_HC,1.03 / 0.66 / 1.61 / 0.80 / 0.70 / 0.77,1 of 18 (4.30)
HFSQSVLYESRNKNSVA,NASTRES,QQYHRLPLS,GPLM_HC,0.21 / -0.20 / -0.06 / -0.31 / -0.25 / -0.09,1 of 18 (2.23)
KSSYSYLYESGNKNSVA,EASTRES,QQYHRLPLS,GPLM_HC,0.92 / 0.84 / 1.15 / 1.04 / 0.81 / 1.37,1 of 18 (3.83)
KCSQSVLYESRNKNSVA,DASTRES,QQYHRLPLS,GPLM_HC,0.36 / 0.04 / 0.05 / 0.09 / 0.29 / 0.37,1 of 18 (1.77)
KTSQSVLYESVNKNSVA,DASTRES,QQYHRLPLS,GPLM_HC,0.15 / -0.13 / 0.15 / 0.24 / 0.08 / 0.51,2 of 18 (2.04)
KSSQSWLYESRNKNSVA,GASIRES,QQYHRLPLS,GPLM_HC,-0.22 / -0.32 / -0.38 / -0.43 / -0.42 / -0.27,2 of 18 (3.18)
KASQSVLYESVNKNSVA,DASTRES,QQYHRLPLS,GPLM_HC,0.31 / -0.01 / 0.27 / 0.12 / 0.21 / 0.26,0 of 18
KSGQGVLYESRNKNSVA,GASTRWS,QQYHRLPLS,GPLM_HC,0.27 / -0.28 / 0.01 / -0.05 / 0.07 / 0.04,3 of 18 (2.24)
KSSQSVLDESRNKNSVA,DASTRES,QQYHRLPLS,GPLM_HC,0.02 / 0.08 / 0.06 / -0.04 / 0.34 / 0.49,0 of 18
KLSQSTLYESRNKNSVA,GASTRES,QQYHRLPLS,GPLM_HC,0.54 / 0.19 / 0.71 / 0.33 / 0.38 / 0.79,1 of 18 (2.73)
KSGPGVLYESRNKNSVA,GASTRES,QQYHRLPLS,GPLM_HC,0.40 / 0.23 / 0.08 / -0.03 / 0.14 / 0.21,0 of 18
KSSQSVLYESRNKNSVA,HASTRED,QQYHRLPLS,GPLM_HC,2.15 / 1.29 / 1.11 / 0.88 / 0.93 / 0.92,0 of 18
KCSQSVLYESVNKNSVA,DASTRES,QQYHRLPLS,GPLM_HC,0.50 / 0.63 / 0.28 / 0.06 / 0.21 / 0.18,0 of 18
KSSPSVLFESRNKNSVA,NASTRES,QQYHRLPLS,GPLM_Gibbs,0.33 / 0.45 / 0.33 / 0.71 / 0.62 / 0.56,0 of 18
KSSQSVLFESRNKNSVA,EASTRES,QQYHRLPLS,GPLM_HC,0.80 / 1.55 / 0.88 / 1.03 / 0.87 / 0.76,0 of 18
KSSQSWLYESRNKNSVA,GASNRES,QQYHRLPLS,GPLM_HC,0.41 / -0.12 / -0.17 / 0.05 / -0.24 / 0.12,3 of 18 (2.41)
KQSQSVLYESRNKNSVA,EASTRES,QQYHRLPLS,GPLM_HC,0.01 / 2.44 / ND / 0.33 / 0.26 / 0.68,0 of 18
KQSQSVLYESRNKNSVA,DASTRES,QQYHRLPLI,GPLM_HC,1.38 / 0.87 / 0.94 / 0.81 / 0.71 / 0.77,1 of 18 (3.12)
KSGQGVLYESRNKNSVA,QASTRES,QQYHRLPLS,GPLM_HC,0.79 / 0.43 / 0.49 / 0.69 / 0.27 / 0.56,0 of 18
KQSQSVLYESRNKNSVA,DASTRES,QQYHRLPLT,GPLM_HC,0.21 / 0.41 / 0.28 / 0.79 / 0.42 / 0.50,1 of 18 (2.48)
KSSQSILYESVNKNSVA,NASTRES,QQYHRLPLS,GPLM_HC,1.02 / 0.20 / 0.29 / 0.34 / 0.47 / 0.60,0 of 18
KSSQSELYESRNKNSVA,GASTRES,QQYHRLTLS,GPLM_HC,-0.54 / -0.28 / -0.57 / -0.39 / -0.30 / -0.56,1 of 18 (2.04)
KVRQSTLYESRNKNSVA,WASTRES,QQYHRLPLS,GPLM_HC,1.02 / 1.07 / 0.68 / 0.60 / 0.92 / 0.48,1 of 18 (2.86)
KSGQGVLYESRNKASVA,GASTRES,QQYHRLPLS,GPLM_HC,0.44 / 0.28 / 0.33 / 0.18 / 0.38 / 0.40,2 of 18 (2.90)
KSSQSVLYESRNKNSVA,GASTRES,QQYHRLTLS,GPLM_HC,ND / ND / ND / ND / ND / ND,1 of 18 (1.74)
KCSQSVLFESRNKNSVA,DASTRES,QQYHRLPLS,GPLM_HC,0.19 / -0.06 / 0.05 / -0.09 / 0.01 / 0.04,0 of 18
KSSQSWLYESRNKNSVA,EASTRES,QQYHRLPLS,GPLM_HC,-0.14 / -0.33 / -0.38 / -0.47 / -0.33 / -0.07,0 of 18
KSSQSWLYESRNKNSVA,GASTRES,QQYHRLTLS,GPLM_HC,1.42 / 0.88 / 0.56 / 1.11 / 0.87 / 0.69,0 of 18
KSSQGVLYESRNKNSVA,GASTRES,QQYHRLPLS,GPLM_HC,0.50 / 0.31 / 0.36 / 0.30 / 0.35 / 0.34,1 of 18 (2.23)
KMSQSVLYESRNKNSVA,DASTRES,QQYQRLPLS,GPLM_HC,-0.33 / -0.55 / -0.58 / -0.69 / -0.75 / -0.45,2 of 18 (3.00)
KFSQSVLYESRNSNSVA,DASTRES,QQYHRLPLS,GPLM_HC,0.19 / 0.00 / -0.14 / -0.01 / -0.26 / -0.06,1 of 18 (2.82)
KSSQSFLYESRNKNSVA,GASTRES,EQYHRLTLS,GPLM_HC,-0.48 / -0.56 / -0.40 / -0.57 / -0.52 / -0.22,0 of 18

Top 6 of the variants detected in all replicates, tightest first:

| CDR-L1 | CDR-L2 | CDR-L3 | group | replicates, log10 nM | signal with controls |
|---|---|---|---|---|---|
| KMSQSVLYESRNKNSVA | DASTRES | QQYQRLPLS | GPLM_HC | -0.33 / -0.55 / -0.58 / -0.69 / -0.75 / -0.45 | 2 of 18 (3.00) |
| KSSQSFLYESRNKNSVA | GASTRES | EQYHRLTLS | GPLM_HC | -0.48 / -0.56 / -0.40 / -0.57 / -0.52 / -0.22 | 0 of 18 |
| KSSQSELYESRNKNSVA | GASTRES | QQYHRLTLS | GPLM_HC | -0.54 / -0.28 / -0.57 / -0.39 / -0.30 / -0.56 | 1 of 18 (2.04) |
| KSSQSWLYESRNKNSVA | GASIRES | QQYHRLPLS | GPLM_HC | -0.22 / -0.32 / -0.38 / -0.43 / -0.42 / -0.27 | 2 of 18 (3.18) |
| KSSQSWLYESRNKNSVA | EASTRES | QQYHRLPLS | GPLM_HC | -0.14 / -0.33 / -0.38 / -0.47 / -0.33 / -0.07 | 0 of 18 |
| KLRQSTLYESRNKNSVA | SASTRES | QQYHRLPLS | GPLM_HC | -0.10 / -0.27 / -0.30 / -0.28 / -0.26 / -0.19 | 3 of 18 (2.18) |